Laboratory results published in PubChem BioAssay AID493098 (Sanford-Burnham Center for Chemical Genomics, 2011).
The list shows a part of the results, in another mix than the full data. Calls of active or inactive are those of the source.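 How the source made its calls: active means compounds whose inhibition of the agonist-driven luminescence signal at 20 µM reaches about 50% (limit read from the data); inactive means the rest.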

Protein sequences, listed by entry. Tags and fused reporters are not part of them. Lines headed by an entry give the natural chain unless they say otherwise; changes in a name come on top.
UniProt P51684: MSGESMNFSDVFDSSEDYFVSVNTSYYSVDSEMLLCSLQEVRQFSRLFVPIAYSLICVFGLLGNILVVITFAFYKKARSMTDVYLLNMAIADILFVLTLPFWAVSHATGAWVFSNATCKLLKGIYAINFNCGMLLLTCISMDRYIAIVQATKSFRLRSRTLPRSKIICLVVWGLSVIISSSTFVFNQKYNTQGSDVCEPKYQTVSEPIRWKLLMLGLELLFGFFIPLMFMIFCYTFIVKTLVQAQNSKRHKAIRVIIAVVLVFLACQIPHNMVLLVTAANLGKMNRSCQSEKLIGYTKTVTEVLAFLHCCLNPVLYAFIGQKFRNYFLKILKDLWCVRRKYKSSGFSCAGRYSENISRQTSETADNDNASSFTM

These compounds were tested against C-C chemokine receptor type 6 (Homo sapiens) (UniProt P51684) (assay: CCR6 receptor antagonists, primary screen, cell-based, CHO-K1, luminescence, beta-arrestin, uHTS (AID 493098;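 further: cells stimulated with CCL20 at 14 nM final; plate controls were DMSO with CCL20 for no effect and DMSO without agonist for full effect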)). Conditions: CHO-K1 CCR6 PathHunter beta-arrestin, CCL20-stimulated, at 20 µM, hits give high values.

Row | SMILES | inhibition
1 | CC(C)(C)C(=O)NC(Sc1ncccn1)C(Cl)(Cl)Cl (stereo unspecified) | inactive: 4.13%
2 | Clc1n[nH]nc1-c1nn[nH][15n]1 | inactive: -20.4%
3 | CCOP(=O)(NC(=NC(C)c1ccccc1)NC(C)c1ccccc1)OCC (stereo unspecified) | inactive: 6.77%
4 | O=P1(Nc2ccccn2)COc2ccccc2OC1 | inactive: -3.27%
5 | CCC1=CC2Cc3nc4ccc(Cl)cc4c(N)c3C(C1)C2 (stereo unspecified) | inactive: 47%
6 | CN(CCCl)Cc1cc(Cl)c(NC2=NCCN2)c(Cl)c1 | inactive: 3.82%
7 | CCOP(=O)(Nc1ccc(C)cn1)OCC | inactive: -10.8%
8 | CC(C)/C=N\N=C(\N)N[N+](=O)[O-] | inactive: 18.4%
9 | CN(C(=O)Cc1ccc(Cl)c(Cl)c1)[C@@H]1CCCC[C@H]1N1CCCC1 | inactive: 2.73%
10 | CC1(CBr)Cn2c(nc3ccccc3c2=O)S1 (stereo unspecified) | inactive: -15.4%
11 | COc1ccccc1CNC(=O)COC(=O)C(O)(c1ccccc1)c1ccccc1 | inactive: 9.21%
12 | O=[As](O)(c1cccc(O)c1)c1cccc(O)c1 | inactive: -5.27%
13 | Cc1cccc(OCC(=O)OC2CN3CCC2CC3)c1 (stereo unspecified) | inactive: -5.67%
14 | O=C(OC1CN2CCC1CC2)c1ccc(Cl)cc1 (stereo unspecified) | inactive: 4.18%
15 | CS(=O)(=O)c1ccc(Cl)c(NC(=O)COC(=O)C(O)(c2ccccc2)c2ccccc2)c1 | inactive: 9.7%
16 | COc1cc(C(=O)NCC2(N3CCOCC3)CCCCC2)cc(Cl)c1OC(C)C | inactive: 5.34%
17 | O=[As](O)(O)c1cccnc1 | inactive: 10%
18 | CCOP(=O)(Nc1cccc2ccccc12)OCC | inactive: -7.52%
19 | COc1cc(C2NCCC3(OCCO3)C2(C)C)cc(OC)c1OC (stereo unspecified) | inactive: 13.5%
20 | Nc1cccc2c([As](=O)(O)O)cccc12 | inactive: -17.6%
21 | Cc1ccc(NCCc2c([N+](=O)[O-])cc([N+](=O)[O-])cc2[N+](=O)[O-])cc1 | inactive: 30.2%
22 | CCCOP(=S)(Nc1nc(N)cc(=O)[nH]1)OCCC | inactive: 2.23%
23 | Nc1ccccc1[As](=O)(O)c1ccccc1 | inactive: -0.22%
24 | O=C(O)COc1ccc([As](=O)(O)O)cc1[N+](=O)[O-] | inactive: 10.2%

Row | SMILES | inhibition
25 | O=P(Nc1nccs1)(c1ccccc1)c1nc2ccccc2s1 (stereo unspecified) | inactive: -15.9%
26 | O=P(Nc1nccs1)(Oc1ccccc1)Oc1ccccc1 | inactive: 5.3%
27 | CCOP1(=S)c2c(C)nn(CCC#N)c2N=C(c2ccccc2F)N1C (stereo unspecified) | inactive: 10.4%
28 | CS(=O)(=O)c1cc([N+](=O)[O-])c2no[n+]([O-])c2c1 | inactive: 14.6%
29 | CN(C(=O)Cc1ccccc1)[C@@H]1CC[C@]2(CCCO2)C[C@H]1N1CCCC1 | inactive: 12.3%
30 | CCOP1(=S)c2c(C)nn(CCC#N)c2N=C(c2ccc(F)cc2)N1C (stereo unspecified) | inactive: 17.1%
31 | N#CCCN(C(=O)COC(=O)C(O)(c1ccccc1)c1ccccc1)c1ccc(F)cc1 | inactive: -0.36%
32 | CN(C(=O)Cc1ccc(Cl)c(Cl)c1)[C@H]1CC[C@@]2(CCCO2)C[C@@H]1N1CCCC1 | inactive: 7%
33 | CN(C)C(=O)c1cc([N+](=O)[O-])cc2c1-c1c(cc([N+](=O)[O-])cc1[N+](=O)[O-])C2=O | inactive: 41.7%
34 | O=[N+]([O-])c1ccc2c(c1)nnn2O | inactive: -3.86%
35 | NC(=O)Nc1ccc([As](=O)(O)O)cc1 | inactive: -4.84%
36 | Cc1ccc(OP(=O)(Nc2ccc([N+](=O)[O-])cn2)Oc2ccc(C)cc2)cc1 | inactive: 22.4%
37 | Cc1ccc2nc3c(c(C)c2c1)CC(C(Cl)Cl)S3 (stereo unspecified) | inactive: 10.6%
38 | COc1cc(C(=O)NCC2(N3CCOCC3)CCCCC2)ccc1OCC(C)C | inactive: 13.2%
39 | O=[N+]([O-])c1ccc(-c2cc([N+](=O)[O-])c(O)c([N+](=O)[O-])c2)cc1 | inactive: 30.5%
40 | C[As](=O)(O)c1cccc(C(=O)O)c1 | inactive: -3.83%
41 | O=[As](O)(c1ccc(O)cc1)c1ccccc1O | inactive: -9.73%
42 | O=[N+]([O-])c1cc([N+](=O)[O-])c(-c2ccn[nH]2)s1 | inactive: -1.35%
43 | O=C(OC1CN2CCC1CC2)c1cccc2[nH]cnc12 (stereo unspecified) | inactive: 6.97%
44 | CCN(CC)C(=S)SC(NC=O)C(Cl)(Cl)Cl (stereo unspecified) | inactive: 37%
45 | CC(C)NC(=O)NP(=O)(Oc1ccccc1)Oc1ccccc1 | inactive: 10%
46 | ClCCSc1nnc(-c2cccnc2)o1 | inactive: 4.87%
47 | CC(C)c1ccc(OP(=O)(Nc2ccccn2)Oc2ccccc2F)cc1 (stereo unspecified) | inactive: 0.98%
48 | COC(=O)C1(C)COP(=O)(N2CCCCCC2)OC1 (stereo unspecified) | inactive: 3.67%

Row | SMILES | inhibition
49 | O=P1(N(CCCl)CCCl)Nc2ccccc2N1 | inactive: 8.39%
50 | O=P1(N(CCCl)CCCl)OCCCN1CCCl (stereo unspecified) | inactive: 4.26%
51 | COc1cc(I)ccc1[As](=O)(O)O | inactive: 7.8%
52 | COc1ccc2nc(NP(=O)(c3ccccc3)c3ccccc3)sc2c1 | inactive: 15.4%
53 | Cc1c2c(nc3ccccc13)SC(C(Cl)Cl)C2 (stereo unspecified) | inactive: -14.1%
54 | Cc1cc(=O)[nH]c(N[N+](=O)[O-])n1 | inactive: 16.4%
55 | O=C(OC1CN2CCC1CC2)C12CC3CC(CC(C3)C1)C2 (stereo unspecified) | inactive: 1.2%
56 | O=[N+]([O-])c1cc(Oc2ccc([N+](=O)[O-])cc2C(F)(F)F)cc([N+](=O)[O-])c1 | inactive: 6.09%
57 | COc1ccc(N/C(=N/P(=O)(N2CCOCC2)N2CCOCC2)N2CCOCC2)cc1 | inactive: -4.85%
58 | O=C(Nc1ccncc1[N+](=O)[O-])c1ccc([N+](=O)[O-])cc1[N+](=O)[O-] | inactive: -5.73%
59 | O=C(COc1ccccc1)OC1CN2CCC1CC2 (stereo unspecified) | inactive: -5.41%
60 | COP1(=S)c2c(C)nn(CCC#N)c2N=C(c2ccc(F)cc2)N1C (stereo unspecified) | inactive: -11.7%
61 | CCC(C)N(CC(C)C)C(=S)SC(NC(C)=O)C(Cl)(Cl)Cl (stereo unspecified) | inactive: 30.5%
62 | O=C(OC1CN2CCC1CC2)c1cccc([N+](=O)[O-])c1 (stereo unspecified) | inactive: 2.6%
63 | CCOC(=O)c1ccc(NC(=O)C(C)(CCl)SC)cc1 (stereo unspecified) | inactive: 2.54%
64 | Cc1cc(SC(NC(=O)c2ccccc2)C(Cl)(Cl)Cl)nc(C(C)C)n1 (stereo unspecified) | inactive: 16.4%
65 | CCCCOc1ccc(C(=O)NCC2(N3CCCCC3)CCCCC2)cc1OC | inactive: 3.88%
66 | CCOC(=O)Nc1ccc([As](=O)(O)O)c(O)c1 | inactive: 7.95%
67 | CC1CCNP(=O)(N(CCCl)CCCl)O1 (stereo unspecified) | inactive: -0.49%
68 | O=P(Nc1ccccn1)(c1cccc2ccccc12)c1cccc2ccccc12 | inactive: 17.6%
69 | Cc1cc(SC(NC=O)C(Cl)(Cl)Cl)ncn1 (stereo unspecified) | inactive: 9.25%
70 | O=[N+]([O-])c1ccc(Nc2ccc(Oc3ccc([N+](=O)[O-])cc3[N+](=O)[O-])cc2)c([N+](=O)[O-])c1 | inactive: -0.57%
71 | CCOC(=O)Nc1cccc([As](=O)(O)O)c1 | inactive: 8.34%
